Measured values from US7598253B2, “Reverse-turn mimetics and methods relating thereto” (Myriad Genetics, Inc., priority 1995, dated 2009).

Sequences of proteins named here, by UniProt entry; tags and fusion partners are left off. A change or cut given only in a name is not applied to a line headed by its entry. Residues count along the entry.
UniProt A0A286XTF2, 1-366: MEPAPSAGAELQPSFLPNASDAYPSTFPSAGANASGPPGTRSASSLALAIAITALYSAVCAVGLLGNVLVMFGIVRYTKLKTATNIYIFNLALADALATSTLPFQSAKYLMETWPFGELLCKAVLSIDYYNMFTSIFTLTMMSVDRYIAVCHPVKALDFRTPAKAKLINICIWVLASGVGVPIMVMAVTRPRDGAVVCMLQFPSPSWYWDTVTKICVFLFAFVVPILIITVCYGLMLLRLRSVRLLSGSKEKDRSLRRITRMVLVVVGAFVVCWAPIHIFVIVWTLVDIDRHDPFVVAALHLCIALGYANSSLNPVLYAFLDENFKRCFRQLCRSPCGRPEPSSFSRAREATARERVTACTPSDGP

Target: δ opiate receptor (Cavia porcellus, UniProt A0A286XTF2)
Experiment: Opiate (δ) binding, [3H]DPDPE competitive radioligand binding
Parameters: species or system guinea pig

Molecule Oc1ccc2c3c1O[C@H]1c4[nH]c5ccccc5c4C[C@@]4(O)[C@@H](C2)N(CC2CC2)CC[C@]314 [Naltrindole] has an IC50 of 630 pM and a Ki of 200 pM.
